Some compounds may have been tested in ways that are not shown here.
What was measured:
[1] = simple diffusion, citrate buffer pH 5; cited from earlier work
[2] = Transdermal electrotransport flux / delivery efficiency of sufentanil (no method given)
[3] = In vitro transdermal electrotransport fentanyl flux, two-compartment diffusion cell

| SMILES | plasma concentration [1] | minimum sufentanil salt concentration below which transdermal electrotransport flux becomes dependent on concentration ([2]; aqueous donor reservoir solution) | minimum sufentanil salt concentration below which transdermal electrotransport flux becomes dependent on concentration ([2]; aqueous solution, equivalent of 1.7 mM) | transdermal electrotransport delivery efficiency (rate delivered per unit of applied current) relative to fentanyl ([2]; fraction of that of fentanyl) | time to steady state transdermal flux ([3]; constant DC 200 μA (100 μA/cm^2), 16 h, average of 6 runs) [h] | normalized transdermal fentanyl flux (percentage of steady state flux) ([3]; fentanyl HCl concentrations above about 6 mg/mL) [%] |
| --- | --- | --- | --- | --- | --- | --- |
| CCC(=O)N(c1ccccc1)C1(COC)CCN(CCc2cccs2)CC1 | did not produce any detectable plasma concentration | about 1.7 mM | about 1 mg/mL | about one-third |  |  |
| CCC(=O)N(c1ccccc1)C1CCN(CCc2ccccc2)CC1 |  |  |  |  | 8 | 100 |

Reference: patent US6881208B1
